Assay results: patent publication US20240360179A1, “STAPLED PEPTIDES AND METHODS THEREOF” (FOG PHARMACEUTICALS, INC., priority 2021, published 2024)

Sequences of proteins named here, by UniProt entry; tags and fusion partners are left off.
UniProt P35222, whole entry: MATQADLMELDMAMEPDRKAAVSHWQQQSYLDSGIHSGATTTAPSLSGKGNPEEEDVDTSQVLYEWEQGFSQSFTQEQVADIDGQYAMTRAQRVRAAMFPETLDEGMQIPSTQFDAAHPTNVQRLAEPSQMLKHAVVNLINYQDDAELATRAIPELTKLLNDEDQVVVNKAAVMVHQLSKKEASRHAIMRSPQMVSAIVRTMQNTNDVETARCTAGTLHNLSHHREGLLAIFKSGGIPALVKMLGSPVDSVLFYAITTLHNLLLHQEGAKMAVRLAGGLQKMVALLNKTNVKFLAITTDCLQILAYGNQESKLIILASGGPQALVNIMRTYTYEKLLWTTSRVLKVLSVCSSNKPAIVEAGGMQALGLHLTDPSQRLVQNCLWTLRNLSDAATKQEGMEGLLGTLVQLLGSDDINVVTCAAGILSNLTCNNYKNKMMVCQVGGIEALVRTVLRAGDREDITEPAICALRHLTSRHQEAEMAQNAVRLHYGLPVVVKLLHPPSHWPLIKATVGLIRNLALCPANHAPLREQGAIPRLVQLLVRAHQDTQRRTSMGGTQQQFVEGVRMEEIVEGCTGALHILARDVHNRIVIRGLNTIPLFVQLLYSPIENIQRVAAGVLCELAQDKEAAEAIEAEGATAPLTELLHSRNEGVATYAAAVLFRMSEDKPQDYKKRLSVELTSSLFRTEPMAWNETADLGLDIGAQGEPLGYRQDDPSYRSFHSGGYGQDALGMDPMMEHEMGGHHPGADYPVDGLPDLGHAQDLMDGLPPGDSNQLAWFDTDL

target: beta-catenin/TCF4 interaction (Homo sapiens, UniProt P35222); experiment: cell-based; design: host or cells: HEK293; conditions: NanoBRET Abs IC50 (uM)

Row | Structure (SMILES) | IC50 [µM]
1 | CC(=O)N1CCC[C@]12CC=CCCCC1(CCCC=CCCCOC(=O)N3CC[C@@]4(C3)NC(=O)[C@H](CCCCNC(=O)CC[C@@H](C(=O)N[C@@H](C)C(N)=O)NC(=O)[C@H](Cc3csc5ccccc35)NC(=O)[C@H](Cc3ccccc3C(F)(F)F)NC4=O)NC(=O)[C@H](Cc3ccccc3)NC(=O)[C@H](C)NC(=O)C(C)(C)NC(=O)[C@H](Cc3cccc(C(=O)O)c3)NC(=O)[C@H](CC(=O)O)NC1=O)NC(=O)[C@H](CC(C)(C)C)NC(=O)[C@H](CC(=O)O)NC2=O (single isomer, unassigned) [I-69, Ac-PL3-Asp-Npg-B5-Asp-3COOHF-Aib-Ala-Phe-Lys*3-PyrS2-2F3MeF-BztA-GlnR*3-Ala-NH2] | < 1.5
2 | CC(=O)N1CCC[C@]12CC=CCCCC1(CCCC=CCCCOC(=O)N3CC[C@@]4(C3)NC(=O)[C@H](CCCCNC(=O)CC[C@@H](C(=O)N[C@@H](C)C(N)=O)NC(=O)[C@H](Cc3csc5ccccc35)NC(=O)[C@H](Cc3ccccc3C(F)(F)F)NC4=O)NC(=O)[C@H](Cc3ccccc3)NC(=O)[C@H](C)NC(=O)[C@H](CC3CCCCC3)NC(=O)[C@H](Cc3cccc(C(=O)O)c3)NC(=O)[C@H](CC(=O)O)NC1=O)NC(=O)[C@H](CC(C)(C)C)NC(=O)[C@H](CC(=O)O)NC2=O (single isomer, unassigned) [I-102, Ac-PL3-Asp-Npg-B5-Asp-3COOHF-Cha-Ala-Phe-Lys*3-PyrS2-2F3MeF-BztA-GlnR*3-Ala-NH2] | 3 to 10

Results, then the compound that gave them:

Row | IC50 [µM] | Structure (SMILES)
3 | > 10 | CC(=O)N1CCC[C@]12CC=CCCCC1(CCCC=CCCCOC(=O)N3CC[C@@]4(C3)NC(=O)[C@@H](CCCCNC(=O)CC[C@@H](C(N)=O)NC(=O)[C@H](Cc3csc5ccccc35)NC(=O)[C@H](Cc3ccsc3)NC4=O)NC(=O)[C@H](Cc3ccccc3)NC(=O)[C@H](C)NC(=O)[C@H](C)NC(=O)[C@H](Cc3cccc(C(=O)O)c3)NC(=O)[C@H](CC(=O)O)NC1=O)NC(=O)[C@H](CC(C)C)NC(=O)[C@H](CC(=O)O)NC2=O (single isomer, unassigned) [I-10, Ac-PL3-Asp-Leu-B5-Asp-3COOHF-Ala-Ala-Phe-dLys*3-PyrS2-3Thi-BztA-GlnR*3-NH2]
4 | 3 to 10 | CC(=O)N1CCC[C@]12CC=CCCCC1(CCCC=CCCCOC(=O)N3CC[C@@]4(C3)NC(=O)[C@H](CCCCNC(=O)CC[C@@H](C(N)=O)NC(=O)[C@H](Cc3csc5ccccc35)NC(=O)[C@H](Cc3ccsc3)NC4=O)NC(=O)[C@H](Cc3ccccc3)NC(=O)[C@H](C)NC(=O)[C@H](C)NC(=O)[C@H](Cc3cccc(C(=O)O)c3)NC(=O)[C@H](CC(=O)O)NC1=O)NC(=O)[C@H](CC(C)C)NC(=O)[C@H](CC(=O)O)NC2=O (single isomer, unassigned) [I-12, Ac-PL3-Asp-Leu-B5-Asp-3COOHF-Ala-Ala-Phe-Lys*3-PyrS2-3Thi-BztA-GlnR*3-NH2]
5 | 3 to 10 | CC(=O)N1CCC[C@]12CC=CCCCC1(CCCC=CCCCOC(=O)N3CC[C@@]4(C3)NC(=O)[C@H](CCC(=O)NCCCC[C@@H](C(N)=O)NC(=O)[C@H](Cc3csc5ccccc35)NC(=O)[C@H](Cc3ccsc3)NC4=O)NC(=O)[C@H](Cc3ccccc3)NC(=O)[C@H](C)NC(=O)[C@H](C)NC(=O)[C@H](Cc3cccc(C(=O)O)c3)NC(=O)[C@H](CC(=O)O)NC1=O)NC(=O)[C@H](CC(C)C)NC(=O)[C@H](CC(=O)O)NC2=O (single isomer, unassigned) [I-16, Ac-PL3-Asp-Leu-B5-Asp-3COOHF-Ala-Ala-Phe-GlnR*3-PyrS2-3Thi-BztA-Lys*3-NH2]
6 | > 10 | CC(=O)N1CCC[C@]12CC=CCCCC1(CCCC=CCCCOC(=O)N3CC[C@@]4(C3)NC(=O)[C@H](CCCCNC(=O)CC[C@@H](C(N)=O)NC(=O)[C@H](Cc3csc5ccccc35)NC(=O)[C@H](Cc3ccsc3)NC4=O)NC(=O)[C@H](Cc3ccccc3)NC(=O)[C@H](C)NC(=O)[C@H](C)NC(=O)[C@H](CC(=O)O)NC(=O)[C@H](CC(=O)O)NC1=O)NC(=O)[C@H](CC(C)C)NC(=O)[C@H](CC(=O)O)NC2=O (single isomer, unassigned) [I-4, Ac-PL3-Asp-Leu-B5-Asp-Asp-Ala-Ala-Phe-Lys*3-PyrS2-3Thi-BztA-GlnR*3-NH2]

same assay, conditions: NanoBRET Abs IC50 (uM), absolute IC50

Row | IC50 [µM] | Structure (SMILES)
7 | 1.5 to 3 | CC(=O)N1CCC[C@]12CC=CCCCC1(CCCC=CCCCOC(=O)N3CC[C@@]4(C3)NC(=O)[C@H](CCCCNC(=O)CC[C@@H](C(=O)N[C@@H](CC(C)C)C(=O)N[C@@H](CCC(=O)O)C(=O)N[C@@H](C)C(N)=O)NC(=O)[C@H](Cc3csc5ccccc35)NC(=O)[C@H](Cc3ccsc3)NC4=O)NC(=O)[C@H](Cc3ccccc3)NC(=O)[C@H](C)NC(=O)C(C)(C)NC(=O)[C@H](Cc3cccc(C(=O)O)c3)NC(=O)[C@H](CC(=O)O)NC1=O)NC(=O)[C@H](CC(C)(C)C)NC(=O)[C@H](CC(=O)O)NC2=O (single isomer, unassigned) [I-495, Ac-PL3-Asp-Npg-B5-Asp-3COOHF-Aib-Ala-Phe-Lys*3-PyrS2-3Thi-BztA-GlnR*3-Leu-Glu-Ala-NH2]
8 | > 10 | CCCC[C@@H]1NC(=O)[C@H](C)NC(=O)C(C)(C)NC(=O)[C@H](Cc2cccc(C(=O)O)c2)NC(=O)[C@H](CC(=O)O)NC(=O)C2(CCCC=CCCCOC(=O)N3CC[C@@]4(C3)NC(=O)[C@H](CCCCNC(=O)CC[C@@H](C(=O)N[C@@H](C)C(N)=O)NC(=O)[C@H](Cc3ccc(Cl)c(Cl)c3)NC(=O)[C@H](Cc3ccccc3)NC4=O)NC1=O)CCCC=CC[C@]1(CCCN1C(C)=O)C(=O)N[C@@H](CC(=O)O)C(=O)N[C@@H](CC(C)(C)C)C(=O)N2 (single isomer, unassigned) [I-480, Ac-PL3-Asp-Npg-B5-Asp-3COOHF-Aib-Ala-nLeu-Lys*3-PyrS2-Phe-34ClF-GlnR*3-Ala-NH2]
9 | 1.5 to 3 | CC(=O)N1CCC[C@]12CC=CCCCC1(CCCC=CCCCOC(=O)N3CC[C@@]4(C3)NC(=O)[C@H](CCCCNC(=O)CC[C@@H](C(=O)N[C@@H](CC(C)C)C(=O)N[C@@H](CO)C(=O)N[C@@H](C)C(N)=O)NC(=O)[C@H](Cc3csc5ccccc35)NC(=O)[C@H](Cc3ccsc3)NC4=O)NC(=O)[C@H](Cc3ccccc3)NC(=O)[C@H](C)NC(=O)C(C)(C)NC(=O)[C@H](Cc3cccc(C(=O)O)c3)NC(=O)[C@H](CC(=O)O)NC1=O)NC(=O)[C@H](CC(C)(C)C)NC(=O)[C@H](CC(=O)O)NC2=O (single isomer, unassigned) [I-497, Ac-PL3-Asp-Npg-B5-Asp-3COOHF-Aib-Ala-Phe-Lys*3-PyrS2-3Thi-BztA-GlnR*3-Leu-Ser-Ala-NH2]
10 | 3 to 10 | CC(=O)N1CCC[C@]12CC=CCCCC1(CCCC=CCCCOC(=O)N3CC[C@@]4(C3)NC(=O)[C@H](CCCCNC(=O)CC[C@@H](C(=O)N[C@@H](C)C(N)=O)NC(=O)[C@H](Cc3csc5ccccc35)NC(=O)[C@H](Cc3ccsc3)NC4=O)NC(=O)[C@H](Cc3ccccc3)NC(=O)[C@H](C)NC(=O)[C@@](C)(Cc3ccccc3)NC(=O)[C@H](Cc3cccc(C(=O)O)c3)NC(=O)[C@H](CC(=O)O)NC1=O)NC(=O)[C@H](CC(C)(C)C)NC(=O)[C@H](CC(=O)O)NC2=O (single isomer, unassigned) [I-457, Ac-PL3-Asp-Npg-B5-Asp-3COOHF-aMeDF-Ala-Phe-Lys*3-PyrS2-3Thi-BztA-GlnR*3-Ala-NH2]
11 | < 1.5 | CC(=O)N1CCC[C@]12CC=CCCCC1(CCCC=CCCCOC(=O)N3CC[C@@]4(C3)NC(=O)[C@H](CCCCNC(=O)CC[C@@H](C(=O)N[C@H](C(=O)NC(C)(C)C(N)=O)[C@@H](C)O)NC(=O)[C@H](Cc3csc5ccccc35)NC(=O)[C@H](Cc3ccsc3)NC4=O)NC(=O)[C@H](Cc3ccccc3)NC(=O)[C@H](C)NC(=O)C(C)(C)NC(=O)[C@H](Cc3cccc(C(=O)O)c3)NC(=O)[C@H](CC(=O)O)NC1=O)NC(=O)[C@H](CC(C)(C)C)NC(=O)[C@H](CC(=O)O)NC2=O (single isomer, unassigned) [I-412, Ac-PL3-Asp-Npg-B5-Asp-3COOHF-Aib-Ala-Phe-Lys*3-PyrS2-3Thi-BztA-GlnR*3-Thr-Aib-NH2]
12 | 3 to 10 | CC(=O)N1CCC[C@]12CC=CCCCC1(CCCC=CCCCOC(=O)N3CC[C@@]4(C3)NC(=O)[C@H](CCCCNC(=O)CC[C@@H](C(=O)N[C@@H](CC(C)C)C(=O)N[C@H](C(=O)N[C@@H](C)C(N)=O)[C@H](C)O)NC(=O)[C@H](Cc3csc5ccccc35)NC(=O)[C@H](Cc3ccsc3)NC4=O)NC(=O)[C@H](Cc3ccccc3)NC(=O)[C@H](C)NC(=O)C(C)(C)NC(=O)[C@H](Cc3cccc(C(=O)O)c3)NC(=O)[C@H](CC(=O)O)NC1=O)NC(=O)[C@H](CC(C)(C)C)NC(=O)[C@H](CC(=O)O)NC2=O (single isomer, unassigned) [I-501, Ac-PL3-Asp-Npg-B5-Asp-3COOHF-Aib-Ala-Phe-Lys*3-PyrS2-3Thi-BztA-GlnR*3-Leu-aThr-Ala-NH2]
13 | > 10 | CC(=O)N1CCC[C@]12CC=CCCCC1(CCCC=CCCCOC(=O)N3CC[C@@]4(C3)NC(=O)[C@H](CCCCNC(=O)CC[C@@H](C(=O)N[C@@H](C)C(N)=O)NC(=O)[C@H](Cc3csc5ccccc35)NC(=O)[C@H](Cc3ccsc3)NC4=O)NC(=O)[C@H](Cc3ccccc3)NC(=O)[C@H](C)NC(=O)[C@@](C)(CO)NC(=O)[C@H](Cc3cccc(C(=O)O)c3)NC(=O)[C@H](CC(=O)O)NC1=O)NC(=O)[C@H](CC(C)(C)C)NC(=O)[C@H](CC(=O)O)NC2=O (single isomer, unassigned) [I-437, Ac-PL3-Asp-Npg-B5-Asp-3COOHF-DaMeS-Ala-Phe-Lys*3-PyrS2-3Thi-BztA-GlnR*3-Ala-NH2]
14 | > 10 | CC(=O)N1CCC[C@]12CC=CCCCC1(CCCC=CCCCOC(=O)N3CC[C@@]4(C3)NC(=O)[C@H](CCCCNC(=O)CC[C@@H](C(=O)N[C@@H](C)C(N)=O)NC(=O)[C@H](Cc3ccc5ccccc5c3)NC(=O)[C@H](Cc3ccccc3)NC4=O)NC(=O)[C@H](Cc3ccccc3)NC(=O)[C@H](C)NC(=O)C(C)(C)NC(=O)[C@H](Cc3cccc(C(=O)O)c3)NC(=O)[C@H](CC(=O)O)NC1=O)NC(=O)[C@H](CC(C)(C)C)NC(=O)[C@H](CC(=O)O)NC2=O (single isomer, unassigned) [I-484, Ac-PL3-Asp-Npg-B5-Asp-3COOHF-Aib-Ala-Phe-Lys*3-PyrS2-Phe-2NapA-GlnR*3-Ala-NH2]
